Measurements: paper PMC3866371 (Neuropharmacology, 2013)
Where two headings read alike, the source gives them in different places.

Protein sequences, listed by entry. Tags and fused reporters are not part of them. Residues count along the entry.
UniProt P30926, 22-498: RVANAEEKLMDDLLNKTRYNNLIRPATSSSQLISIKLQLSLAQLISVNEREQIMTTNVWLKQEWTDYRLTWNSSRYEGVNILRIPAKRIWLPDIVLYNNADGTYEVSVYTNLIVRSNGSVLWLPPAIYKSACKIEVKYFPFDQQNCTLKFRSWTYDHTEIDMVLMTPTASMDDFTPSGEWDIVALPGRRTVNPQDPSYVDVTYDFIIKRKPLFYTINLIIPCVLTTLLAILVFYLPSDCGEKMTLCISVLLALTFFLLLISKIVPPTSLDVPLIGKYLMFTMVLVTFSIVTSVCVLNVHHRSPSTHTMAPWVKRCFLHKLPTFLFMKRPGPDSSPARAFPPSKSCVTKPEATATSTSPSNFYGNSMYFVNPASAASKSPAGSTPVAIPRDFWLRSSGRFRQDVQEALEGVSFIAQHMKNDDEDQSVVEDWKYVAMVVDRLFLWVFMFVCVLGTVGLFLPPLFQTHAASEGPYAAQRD
UniProt P32297, 32-505: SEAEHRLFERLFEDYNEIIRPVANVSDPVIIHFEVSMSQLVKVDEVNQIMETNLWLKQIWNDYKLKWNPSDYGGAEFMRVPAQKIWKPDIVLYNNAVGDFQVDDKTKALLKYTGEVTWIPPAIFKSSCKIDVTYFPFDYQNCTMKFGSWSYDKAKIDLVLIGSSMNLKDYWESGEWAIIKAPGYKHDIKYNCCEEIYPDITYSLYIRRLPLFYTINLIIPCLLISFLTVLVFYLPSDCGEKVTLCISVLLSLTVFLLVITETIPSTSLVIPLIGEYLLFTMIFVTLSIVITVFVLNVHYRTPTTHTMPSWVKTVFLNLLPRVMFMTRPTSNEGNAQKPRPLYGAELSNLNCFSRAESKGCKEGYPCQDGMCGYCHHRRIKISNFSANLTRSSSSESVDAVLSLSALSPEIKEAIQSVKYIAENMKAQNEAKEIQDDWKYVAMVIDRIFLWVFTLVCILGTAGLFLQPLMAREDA
UniProt P04757, 26-499: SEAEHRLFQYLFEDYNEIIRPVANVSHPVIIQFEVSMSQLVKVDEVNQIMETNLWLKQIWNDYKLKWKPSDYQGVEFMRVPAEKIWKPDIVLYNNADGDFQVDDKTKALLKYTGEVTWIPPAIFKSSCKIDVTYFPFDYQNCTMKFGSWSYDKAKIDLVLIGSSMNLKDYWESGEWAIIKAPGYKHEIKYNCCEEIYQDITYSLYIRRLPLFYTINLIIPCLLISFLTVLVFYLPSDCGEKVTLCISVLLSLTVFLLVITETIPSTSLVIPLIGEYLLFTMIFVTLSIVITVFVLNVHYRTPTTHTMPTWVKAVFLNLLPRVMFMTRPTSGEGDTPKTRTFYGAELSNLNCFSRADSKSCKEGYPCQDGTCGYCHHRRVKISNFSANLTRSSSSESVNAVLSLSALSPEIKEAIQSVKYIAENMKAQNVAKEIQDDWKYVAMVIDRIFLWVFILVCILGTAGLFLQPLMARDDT
UniProt P12392, 21-495: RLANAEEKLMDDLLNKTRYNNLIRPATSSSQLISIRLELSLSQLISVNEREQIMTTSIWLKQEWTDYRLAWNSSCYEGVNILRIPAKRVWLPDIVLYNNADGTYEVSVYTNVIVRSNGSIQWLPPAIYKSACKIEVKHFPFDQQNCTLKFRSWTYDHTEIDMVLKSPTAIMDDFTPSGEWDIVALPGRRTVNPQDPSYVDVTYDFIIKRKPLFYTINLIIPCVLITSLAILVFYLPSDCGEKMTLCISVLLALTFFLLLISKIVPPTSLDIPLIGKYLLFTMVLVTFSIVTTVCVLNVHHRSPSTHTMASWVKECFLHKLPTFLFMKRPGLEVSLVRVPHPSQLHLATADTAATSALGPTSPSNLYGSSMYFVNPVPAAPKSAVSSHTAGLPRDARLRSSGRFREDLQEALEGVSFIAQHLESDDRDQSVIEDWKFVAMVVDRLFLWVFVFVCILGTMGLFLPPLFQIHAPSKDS

What was measured:
human α3β4α5 nAChR [1] = target: T1, human α3β4α5 nAChR (Homo sapiens, UniProt P30926+P32297); test: Competition binding with [^125I]AT-1012 as radioligand, HEK cell membranes; settings: read-out: Binding affinity (Ki) at human α3β4α5 nAChR; radioligand [^125I]AT-1012; average ± SD
human α3β4α5 nAChR [2] = target: T1, human α3β4α5 nAChR; settings: read-out: Binding affinity (Ki) at human α3β4α5 nAChR
rat α3β4 nAChR [3] = target: T2, rat α3β4 nAChR (Rattus norvegicus, UniProt P04757+P12392); test: Competition binding with [^125I]AT-1012 as radioligand, HEK cell membranes
rat α3β4 nAChR [4] = target: T2, rat α3β4 nAChR; test: Competition binding with [^3H]epibatidine as radioligand, HEK cell membranes

SMILES	Ki (human α3β4α5 nAChR [1]) [nM]	Ki (human α3β4α5 nAChR [2]) [nM]	Ki (rat α3β4 nAChR [3]) [nM]	Ki (rat α3β4 nAChR [4]) [nM]
CN1C2CCCC1CC(Nc1ccccc1Br)C2 (stereo not shown) [AT-1001]	1.75 ± 0.14	3.34 ± 0.03		
CNC1(C)C2CCC(C2)C1(C)C (stereo not shown) [Mecamylamine]			> 10000	> 10000
